Experiment [1] deals with BL21-DE3. The settings on record: Paramecium bursaria Chlorella virus 1.
For experiment [2], the system named is BL21-DE3. Particulars: Paramecium bursaria Chlorella virus 1. This is another data set of the same source.

Broadly, the Km is the substrate concentration at which the rate is half of its maximum. As a reminder, the kcat is the number of substrate molecules converted per active site and unit of time at saturation. The kcat/Km is the turnover number divided by the Michaelis constant. On to `C[S+](CC[C@H](N)C(=O)[O-])C[C@H]1O[C@@H](n2cnc3c(N)ncnc32)[C@H](O)[C@@H]1O` (some centres not stated), for which, in the experiment with BL21-DE3 [1], the Km is 126 µM and the kcat was determined as 3.9 min⁻¹. For the same molecule, in the experiment with BL21-DE3 [2], the catalytic efficiency (kcat/Km) turned out to be 31000 min⁻¹ M⁻¹.
As to `C[S+](CC[C@H](N)C(=O)O)C[C@H]1O[C@@H](n2cnc3c(N)ncnc32)[C@H](OCc2ccccc2)[C@@H]1O` (mixture of isomers), in the experiment with BL21-DE3 [1], the Michaelis-Menten constant (Km) came to 86 µM and the kcat was 0.13 min⁻¹. The kcat/Km in the experiment on BL21-DE3 [2] came to 1510 min⁻¹ M⁻¹.
As to `C[S+](CC[C@H](N)C(=O)O)C[C@H]1O[C@@H](n2cnc3c(N)ncnc32)[C@H](O)[C@@H]1OCc1ccccc1` (mixture of isomers), in the experiment with BL21-DE3 [1], the Km turned out to be 86 µM and the kcat came out at 0.14 min⁻¹. For the same molecule, the kcat/Km with BL21-DE3 [2] is 1630 min⁻¹ M⁻¹.
For `C[S+](CC[C@H](N)C(=O)O)C[C@H]1O[C@@H](n2cnc3c(N)ncnc32)[C@H](OCc2ccccc2)[C@@H]1OCc1ccccc1` (mixture of isomers), in that order: 173 µM, 0.37 min⁻¹ and 2140 min⁻¹ M⁻¹.
